Results published in patent US12465610B2, “Compounds and methods for the treatment of PKR-associated diseases” (Board of Regents, The University of Texas System, priority 2019, dated 2025).

Test: Toxicity in mice
Conditions: 50 mg/kg intravenously daily for 7 days

SMILES	weight loss and adverse effects on well-being
Fc1ccc(Nc2nc(N/N=C/c3ccc4c(c3)OCO4)nc(N3CCOCC3)n2)cc1 [Pac 2, 1,3-benzodioxole-5-carbaldehyde [4-[(4-fluorophenyl)amino]-6-(4-morpholinyl)-1,3,5-triazin-2-yl]hydrazine]	No weight loss or apparent adverse or distressing effects
O=C(N/N=C\c1c(O)ccc2ccccc12)c1cccc2cc[nH]c12 [Pac 1, N′—[(Z)-(2-Hydroxy-1-naphthyl)methylene]-1H-indole-7-carbohydrazide]	No weight loss or apparent adverse or distressing effects
